Measured values: patent US20260167673A1, “NOVEL POLYPEPTIDE, POLYPEPTIDE DERIVATIVE AND USE THEREOF” (NANJING ANJI BIOTECHNOLOGY CO., LTD., priority 2023, published 2026)

Key:
[1] = system: CAL27 tumor xenografts in nude mice; test: CAL27 tumor xenografts, fatty diacid conjugates (Example 11); format: in vivo, BALB/c nude mice; conditions: 20 mg/kg twice weekly
Source text: In this example, modification with the 18-carbon fatty diacid (HOOC—C16—COOH) included two forms: one involved direct attachment of the fatty diacid to the N-terminus (i.e., HOOC—C17-HMMW15-51); the other employed a small peptide linker, Ala-Ala-Asn, to connect the fatty diacid (i.e., HOOC—C17-L-HMMW15-51).
Both HOOC—C17-HMMW15-51 and HOOC—C17-L-HMMW15-51 were synthesized using solid-phase peptide synthesis to couple amino acids. For conjugating the fatty diacid, the fatty acid was coupled to the peptide resin following standard solid-phase synthesis protocols to obtain the crude product. After cleavage, the target compounds were obtained via preparative high-performance liquid chromatography followed by lyophilization.
Human tongue squamous cell carcinoma cells CAL27 were cultured, digested with 0.25% trypsin, centrifuged, and resuspended in serum-free DMEM medium to adjust the cell concentration to 5×10^7 cells/mL. Subsequently, 100 μL of the cell suspension (containing 5×10^6 cells) was subcutaneously inoculated into the left axilla of 4-6-week-old female BALB/c nude mice weighing 14-16 g, which had been acclimatized for one week in an SPF-level animal facility. […] During the treatment period, tumor length (a) and width (b) were measured every four days using a vernier caliper, and tumor volume was calculated using the formula V=0.5×a×b^2. After 21 consecutive days of treatment, the mice were euthanized.

[2] = system: subcutaneous xenograft tumor model using tongue squamous cell carcinoma cells CAL27; test: CAL27 subcutaneous xenograft, fusion protein (Example 10); format: in vivo, BALB/c nude mice; conditions: 20 mg/kg twice weekly
Source text: The novel polypeptide HMMW15-51 (SEQ ID NO. 21) was conjugated to human IgG4 (NCBI Gene ID: 3503) via a GGGG linker, packaged into an expression plasmid (General Biol, Anhui), and transfected into CHO cells. The cells were expanded and subjected to fermentation. The supernatant was collected, and the fusion polypeptide was purified using an AKTA Pure protein purification system with Protein A (Yeasen Biotechnology: 36409ES03). Upon obtaining a sufficient quantity of fusion protein, animal experiments were initiated.
Human tongue squamous cell carcinoma cells CAL27 were cultured, digested with 0.25% trypsin, centrifuged, and resuspended in serum-free DMEM medium to adjust the cell concentration to 5×10^7 cells/mL. Subsequently, 100 μL of the cell suspension (containing 5×10^6 cells) was subcutaneously inoculated into the left axilla of 4-6-week-old female BALB/c nude mice weighing 14-16 g, which had been acclimatized for one week in an SPF-level animal facility. When the average tumor volume reached approximately 80 mm^3 around 14 days post-inoculation, tumor-bearing mice were randomly divided into four groups: a saline control group, a low-dose fusion polypeptide group (7.5 mg/kg, administered twice weekly), a high-dose fusion polypeptide group (15 mg/kg, administered twice weekly), and a cetuximab control group (20 mg/kg, administered twice weekly). During the treatment period, tumor length (a) and width (b) were measured every five days using a vernier caliper, and tumor volume was calculated using the formula V=0.5×a×b^2. After 21 consecutive days of treatment, the mice were euthanized.

cetuximab
tumor volume ([1]; D 1): 68.56 ± 24.96 mm^3 | tumor volume ([1]; D 5): 137.39 ± 41.72 mm^3 | tumor volume ([1]; D 9): 173.47 ± 62.09 mm^3 | tumor volume ([1]; D 13): 205.53 ± 78.87 mm^3 | tumor volume ([1]; D 17): 282.32 ± 128.26 mm^3 | tumor volume ([1]; D 21): 332.74 ± 93.27 mm^3 | tumor volume ([2]; D 1): 81.98 ± 2.85 mm^3 | tumor volume ([2]; D 6): 100.39 ± 10.36 mm^3 | tumor volume ([2]; D 11): 110.93 ± 10.37 mm^3 | tumor volume ([2]; D 16): 152.18 ± 19.10 mm^3 | tumor volume ([2]; D 21): 206.78 ± 28.58 mm^3
